System: HUVEC
Experiment: Cytotoxicity to HUVEC (MTS)
Type: cell-based, Human
Procedure: Assays for cytotoxicity: the above HUVECs were cultured in an F-12K culture medium containing 10% fetal bovine serum (FBS), 100 U/mL penicillin, 100 µg/mL streptomycin, 30 ug/mL ECGS, and 18 u/mL heparin. The HUVECs growing in the exponential phase were digested with pancreatin, and was adjust to have an appropriate level of cell density by using an F-12K complete medium containing 5% FBS, then 150 μL cells were inoculated into a 96-well plate at 3000 cells/well. 24 hours later, 50 μL of the test compound 4-fold diluted in a complete medium containing 5% FBS was added, and the same volume of a DMSO dilute solution was used as a control. After the cells were further cultured for 72 h, 20 μL MTS and 1 μL PMS were added to each well. 1-2 hours later, OD490 was measured, with OD650 as a reference. A dose-effect curve was drawn using the GraphPad Prism software, and half cytotoxic concentration (CC50) was calculated. The therapeutic index (TI) of the test compound on HUVECs was calculated as TI=CC50/EC50.

SMILES: CCN(CC)CCNC(=O)c1c(C)[nH]c(/C=C2\C(=O)Nc3ccc(F)cc32)c1C [Sunitinib, reference compound]
- TI = CC50/EC50: 536

From US9556154B2, “Pyrrole-substituted indolone derivative, preparation method therefor, composition comprising same and use thereof” (SHIJIAZHUANG YILING PHARMACEUTICAL CO., LTD., priority 2014, dated 2017)
